Among the data in article PMC5716713 (2017) are ratio to parent values, retold here.

B1: GST-FAK-NT1 [human] / endogenous Akt1 of SW620 cells [human (endogenous in SW620)] (parent complex)
chain 1: MAAAYLDPNLNHTPNSSTKTHLGTGMERSPGAMERVLKVFHYFESNSEPTTWASIIRHGDATDVRGIIQKIVDSHKVKHVACYGFRLSHLRSEEVHWLHVDMGVSSVREKYELAHPPEEWKYELRI
chain 2: MSDVAIVKEGWLHKRGEYIKTWRPRYFLLKNDGTFIGYKERPQDVDQREAPLNNFSVAQCQLMKTERPRPNTFIIRCLQWTTVIERTFHVETPEEREEWTTAIQTVADGLKKQEEEEMDFRSGSPSDNSGAEEMEVSLAKPKHRVTMNEFEYLKLLGKGTFGKVILVKEKATGRYYAMKILKKEVIVAKDEVAHTLTENRVLQNSRHPFLTALKYSFQTHDRLCFVMEYANGGELFFHLSRERVFSEDRARFYGAEIVSALDYLHSEKNVVYRDLKLENLMLDKDGHIKITDFGLCKEGIKDGATMKTFCGTPEYLAPEVLEDNDYGRAVDWWGLGVVMYEMMCGRLPFYNQDHEKLFELILMEEIRFPRTLGPEAKSLLSGLLKKDPKQRLGGGSEDAKEIMQHRFFAGIVWQHVYEKKLSPPFKPQVTSETDTRYFDEEFTAQMITITPPDQDDSMECVDSERRPHFPQFSYSASGTA

The variants in this assay derive from B1. The assay can be described thus: GST pull-down, western blot densitometry; n=8-19; parent: 1; read off a plot. Background: A western blot detects proteins with antibodies after separation by electrophoresis.
Regarding chain 1 L113A, chain 1 P116C, chain 1 P117G, the ratio to parent was approximately 2.4.

Take chain 1 P116N: the ratio to parent is approximately 1. In the case of chain 1 P116C it was approximately 1; in that of chain 1 P116G, approximately 1.4; in that of chain 1 L113A, approximately 1.5. In the case of chain 1 P117S it was approximately 0.56; in that of chain 1 P117K, approximately 1.3. The result for chain 1 L113A, chain 1 P116N, chain 1 P117K reads approximately 0.92; that for chain 1 L113A, chain 1 P116A, chain 1 P117A, approximately 2.1.
